Measured values reported in article PMC7950324, “A general method for quantifying ligand binding to unmodified receptors using Gaussia luciferase” (The Journal of Biological Chemistry, 2021).
Where two headings read alike, the source gives them in different places. Each block holds one compound with its values, some of them ahead of it.

The chains behind the UniProt entries cited, without tags or fusion partners. Where a name states a change or a piece, a line headed by the entry shows the natural chain unless it says otherwise.
UniProt P35348: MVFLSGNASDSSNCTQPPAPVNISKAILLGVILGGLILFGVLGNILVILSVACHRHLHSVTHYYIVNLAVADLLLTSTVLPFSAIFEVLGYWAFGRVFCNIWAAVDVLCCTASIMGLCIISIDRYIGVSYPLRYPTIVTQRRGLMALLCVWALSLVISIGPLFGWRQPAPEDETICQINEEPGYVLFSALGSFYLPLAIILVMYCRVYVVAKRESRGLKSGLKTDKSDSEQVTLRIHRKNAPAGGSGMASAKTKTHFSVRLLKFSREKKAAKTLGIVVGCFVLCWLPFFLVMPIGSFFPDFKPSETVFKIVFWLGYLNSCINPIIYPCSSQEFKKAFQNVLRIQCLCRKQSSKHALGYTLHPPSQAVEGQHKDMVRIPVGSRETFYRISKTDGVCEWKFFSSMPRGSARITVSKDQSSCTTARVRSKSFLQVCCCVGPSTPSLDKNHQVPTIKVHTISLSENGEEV

Experiments:
ɑ1AAR [1] = target: T1, ɑ1AAR (Homo sapiens, UniProt P35348); experiment: α1AAR ligand screening, plasma membrane–ligand BRET (α1AAR with GLuc–PM); settings: for inhibition at 10 µM: 20 min
ɑ1AAR [2] = target: T1, ɑ1AAR; settings: labeled ligand 150 nM for 15 min, washout, prazosin to prevent rebinding, one phase decay
ɑ1AAR [3] = target: T1, ɑ1AAR; experiment: PM–ligand BRET equilibrium binding, α1AAR with GLuc–PM; design: expressed in transfected cells; host or cells: HEK 293T; settings: one site binding fit
GLuc–ɑ1AAR [4] = target: T2, GLuc–ɑ1AAR (Homo sapiens, UniProt P35348)
GLuc–ɑ1AAR [5] = target: T2, GLuc–ɑ1AAR; experiment: Receptor–ligand BRET equilibrium binding, GLuc–α1AAR in HEK 293T cells; design: Gaussia luciferase signal peptide (N); […]; expressed in transfected cells; host or cells: HEK 293T; settings: one site binding fit
[6] = read-out: plasma membrane-ligand BRET decrease (%) Replicate1
[7] = read-out: plasma membrane-ligand BRET decrease (%) Replicate2

inhibition at 10 µM (ɑ1AAR [1]; [6]): -3.66% | inhibition at 10 µM (ɑ1AAR [1]; [7]): -6.56%
Compound: Cc1cc(C(=O)Nc2nc3ccc(F)cc3s2)no1 [BCC0024436]

inhibition at 10 µM (ɑ1AAR [1]; [6]): -1.67% | inhibition at 10 µM (ɑ1AAR [1]; [7]): -3.87%
Compound: Cc1c(C2C(C#N)=C(N)N(c3cccc([N+](=O)[O-])c3)C3=C2C(=O)CCC3)cnn1C (centres unmarked) [BCC0038765]

plasma membrane-ligand BRET decrease (%) Replicate1 (ɑ1AAR [1]): -100,72% | plasma membrane-ligand BRET decrease (%) Replicate2 (ɑ1AAR [1]): -101,49%
Compound: COc1cc2nc(N3CCN(C(=O)c4ccco4)CC3)nc(N)c2cc1OC [prazosin, reference compound]

Compound: BODIPY FL–prazosin
koff (ɑ1AAR [2]): 0.00133 s⁻¹ | Kd (ɑ1AAR [3]): 46.6 nM | koff (GLuc–ɑ1AAR [4]; labeled ligand 150 nM for 15 min, washout, prazosin to prevent rebinding, one phase decay): 0.00184 s⁻¹ | kon (GLuc–ɑ1AAR [4]; labeled ligand 150 nM, association): 3.86 × 10^4 s^−1M^−1 | Kd (GLuc–ɑ1AAR [5]): 61.1 nM
